Protein sequences, listed by entry. Tags and fused reporters are not part of them.
UniProt P35372, whole entry, species assumed: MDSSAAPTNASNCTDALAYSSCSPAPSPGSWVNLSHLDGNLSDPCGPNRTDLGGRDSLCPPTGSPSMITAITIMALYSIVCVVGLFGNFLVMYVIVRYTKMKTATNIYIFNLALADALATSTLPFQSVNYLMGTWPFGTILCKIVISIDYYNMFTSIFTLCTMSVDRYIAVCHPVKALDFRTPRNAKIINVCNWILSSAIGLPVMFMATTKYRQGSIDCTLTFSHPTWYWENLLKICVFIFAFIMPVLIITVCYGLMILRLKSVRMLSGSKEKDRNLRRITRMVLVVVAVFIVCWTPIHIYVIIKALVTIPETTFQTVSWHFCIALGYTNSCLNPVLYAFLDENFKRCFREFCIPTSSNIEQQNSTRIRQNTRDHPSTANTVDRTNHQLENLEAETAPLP

According to patent US6825205B2 (priority 2002, dated 2004):

Target: μ opioid receptor (μ membrane protein) (Homo sapiens, UniProt P35372)
Format: biochemical

CN1CC[C@]23c4c5ccc(O)c4O[C@H]2C(=O)CC[C@H]3[C@H]1C5 [Hydromorphone, reference compound]
GTP-γ-S Activity/Efficacy % DAMGO: 46 ± 4 % DAMGO
